Measured affinities in a library of Ab-91 heavy chain variants

Values reported by Engelhart et al. 2022, doi:10.1038/s41597-022-01779-4 (FLAb copy).

Binding partner: SARS-CoV-2 spike HR2 peptide, sequence PDVDLGDISGINAS.

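Variants in AAYL51 differ from the parent at up to three CDR positions; double and triple changes were sampled at random. Affinity was read by AlphaSeq, a pooled yeast mating assay with surface-displayed partners. Binding brings cells together so that they mate, and sequencing counts the barcode pairs among the diploids. The ratio of observed to expected reads was calibrated, replicate by replicate, on BCL2-family standards whose Kd was known from biolayer interferometry. Mating was done three times.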

The variants keep the light chain, the linker and the frameworks of Ab-91 (scFv order VL, three GGGGS repeats, VH).
VL: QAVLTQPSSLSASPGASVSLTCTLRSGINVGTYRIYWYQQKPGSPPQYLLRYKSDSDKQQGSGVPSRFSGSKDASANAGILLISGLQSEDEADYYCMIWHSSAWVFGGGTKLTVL
VH: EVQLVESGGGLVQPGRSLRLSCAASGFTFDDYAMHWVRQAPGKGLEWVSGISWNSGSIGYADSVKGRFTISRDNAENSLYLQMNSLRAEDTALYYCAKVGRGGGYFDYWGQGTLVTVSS

Changes read parent residue, position, new residue, counted from the first residue of the VH shown.
Affinities are written as log10 Kd with Kd in nM; a lower number is a better binder.
A pair that was not seen in that replicate is written "nd"; this usually means weak binding, but a binder can also be missed.

| changes | log10 Kd, replicates | empty controls |
|---|---|---|
| D30K/A33T/I58N | 4.90 nd 4.44 | 2/9 (4.27) |
| G56Y/A61M/Y108W | 4.79 4.59 nd | 3/9 (4.65) |
| M34I/K65L/G104F | 3.77 nd nd | 5/9 (3.89) |
| D30E/Y32M/F106Y | nd nd nd | 0/9 |
| N54S/S55E/Y108N | nd nd nd | 0/9 |
| D31P/Y32H/D107W | 4.87 5.69 nd | 6/9 (4.97) |
| S55D/S57H/R101M | 3.94 nd nd | 3/9 (3.92) |
| Y60W/R101H/Y108K | nd nd nd | 0/9 |
| F27M/G100T/D107H | 3.92 nd nd | 0/9 |
| F29A/S57P | 3.23 nd 2.74 | 2/9 (2.82) |
| Y60H/G100Y/G102V | nd nd nd | 1/9 (4.45) |
| I51V/G59I/Y60D | nd nd 3.30 | 0/9 |
| M34A/I51C/D62H | nd 3.34 nd | 1/9 (4.26) |
| Y32A/I51L/V64L | 5.22 4.92 5.54 | 9/9 (5.32) |
| H35L/G50M/Y60I | 5.27 5.31 nd | 5/9 (4.89) |
| F27A/A61G/F106K | 4.46 5.07 5.69 | 7/9 (5.03) |
| S55H/V99I/Y108W | 2.11 2.23 2.07 | 7/9 (4.75) |
| G26D/S63V/Y105P | 5.85 6.41 5.29 | 4/9 (5.36) |
| Y32H/N54P | nd 5.04 4.63 | 3/9 (4.31) |
| S52W/S63I/G102F | 4.56 5.53 5.84 | 1/9 (4.09) |
| M34P/H35L | nd nd nd | 0/9 |
| A33G/S52P/I58F | nd nd nd | 0/9 |
| S55Q/G102C/F106T | 4.69 nd nd | 2/9 (4.38) |
| G26Y/D31A/A61T | nd nd nd | 0/9 |
| T28G/N54L/Y60D | 4.51 5.68 nd | 1/9 (4.44) |
| T28R/G50P/S52W | nd nd nd | 0/9 |
| G100V/G103T | 6.61 5.38 5.73 | 6/9 (4.46) |
| G50L/S63N/R101S | 4.76 nd nd | 0/9 |
| D31C/M34F/S63Y | nd nd nd | 0/9 |
| I51M/W53Q | 3.82 3.20 3.80 | 7/9 (4.41) |
| G59V/D62C/F106G | nd nd 5.32 | 5/9 (4.52) |
| D31V | 1.56 1.50 1.29 | 3/9 (4.48) |
| F27Y/T28C/G56H | 2.59 nd nd | 0/9 |
| G26N/A61H/D107Q | nd nd nd | 1/9 (4.00) |
| H35W/S55P/R101F | 6.29 nd 5.29 | 5/9 (5.20) |
| T28P/D30Y/V64C | nd nd nd | 0/9 |
| S55R/G100S/G104H | 4.48 nd nd | 2/9 (5.08) |
| F27T/D30T/G103F | nd nd nd | 0/9 |
| D31V/A61G/V64A | 3.27 2.90 2.79 | 1/9 (4.45) |
| M34Y/S52D/Y105G | nd nd 4.82 | 0/9 |

Extract of 2 entries:

changes,"log10 Kd, replicates",empty controls
G59V/D62C/F106G,nd nd 5.32,5/9 (4.52)
D30K/A33T/I58N,4.90 nd 4.44,2/9 (4.27)

Nonspecific signal, from three strains lacking the peptide, appeared in 21% of pairings of library AAYL51, centred on 4.54 (5% of these signals below 3.26); values are not corrected for it. For each scFv, signals with the empty controls are counted beside the result, with their mean in brackets.